Only a part is listed here, and it is no random draw. The source made the active and inactive calls.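 Rule for the calls: active = inhibition above about 70% (limit read from the data); inactive = the rest.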
biological target: 14-3-3 protein zeta/delta (Bos taurus) (UniProt P63103); assay: inhibitors of 14-3-3 zeta/Bad binding, primary screen, biochemical, TR-FRET, bovine 14-3-3 zeta (AID 781); settings: TR-FRET 14-3-3zeta/Dy647-pBad peptide displacement, 1 h; at 21.7 µM; active compounds read high;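 note: 0% = full 14-3-3 plus peptide FRET controls and 100% = background without 14-3-3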

The chains behind the UniProt entries cited, without tags or fusion partners.
UniProt P63103, whole entry: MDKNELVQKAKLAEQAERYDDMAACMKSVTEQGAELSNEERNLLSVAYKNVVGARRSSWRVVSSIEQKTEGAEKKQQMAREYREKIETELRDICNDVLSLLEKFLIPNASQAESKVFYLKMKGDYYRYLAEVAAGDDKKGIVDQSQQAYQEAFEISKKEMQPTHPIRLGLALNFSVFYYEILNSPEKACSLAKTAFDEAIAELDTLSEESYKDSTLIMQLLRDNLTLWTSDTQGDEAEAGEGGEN

How did the inhibition turn out when CCN(N=Nc1nonc1N)c1nonc1N was run?
The inhibition was inactive: -13.8%.

— PubChem BioAssay AID781 (Emory University Molecular Libraries Screening Center, 2007)
